In the NIST ThermoML archive (doi:10.1016/j.fluid.2018.09.026):
Values joined by “and” are separate entries in the source; they are usually repeats but may differ in a detail not shown here. Identical values can stand only once.

Details: Liquid; for mass density: Vibrating tube method; for viscosity: Vibrating wire viscometry

OCCOCCOCCOCCO [tetraethylene glycol]
Details | mass density [kg/m3] | viscosity
283.15 K, 100 kPa | 1130.1 | –
283.15 K, 630 kPa | 1130.3 | –
283.15 K, 1170 kPa | 1130.2 | –
283.15 K, 1640 kPa | 1130.8 | –
283.15 K, 2110 kPa | 1131 | –
283.15 K, 3060 kPa | 1131.4 | –
283.15 K, 5060 kPa | 1132.2 | –
283.15 K, 7000 kPa | 1133.1 | –
283.15 K, 9990 kPa | 1134.3 | –
283.15 K, 14800 kPa | 1136.3 | –
283.15 K, 19770 kPa | 1138.4 | –
283.15 K, 24630 kPa | 1140.4 | –
283.15 K, 29550 kPa | 1142.3 | –
283.15 K, 34530 kPa | 1144.2 | –
283.15 K, 39370 kPa | 1146.1 | –
283.15 K, 44340 kPa | 1147.9 | –
283.15 K, 49210 kPa | 1149.7 | –
283.15 K, 54130 kPa | 1151.5 | –
283.15 K, 59040 kPa | 1153.3 | –
283.15 K, 63940 kPa | 1155 | –
283.15 K, 68790 kPa | 1156.7 | –
293.15 K, 100 kPa | 1122 | –
293.15 K, 570 kPa | 1122.2 | –
293.15 K, 1090 kPa | 1122.4 | –
293.15 K, 1480 kPa | 1122.6 | –
293.15 K, 2030 kPa | 1122.8 | –
293.15 K, 3030 kPa | 1123.3 | –
293.15 K, 5050 kPa | 1124.2 | –
293.15 K, 7090 kPa | 1125.1 | –
293.15 K, 9890 kPa | 1126.3 | –
293.15 K, 14910 kPa | 1128.5 | –
293.15 K, 19720 kPa | 1130.5 | –
293.15 K, 24600 kPa | 1132.6 | –
293.15 K, 29670 kPa | 1134.6 | –
293.15 K, 34600 kPa | 1136.6 | –
293.15 K, 39380 kPa | 1138.5 | –
293.15 K, 44310 kPa | 1140.4 | –
293.15 K, 49240 kPa | 1142.3 | –
293.15 K, 54080 kPa | 1144.1 | –
293.15 K, 58950 kPa | 1145.9 | –
293.15 K, 63910 kPa | 1147.7 | –
293.15 K, 68760 kPa | 1149.4 | –
293.33 K, 140 kPa | – | 57.76 mPa·s and 57.29 mPa·s and 57.4 mPa·s
293.33 K, 850 kPa | – | 57.59 mPa·s
293.33 K, 870 kPa | – | 57.57 mPa·s and 57.86 mPa·s
293.33 K, 1070 kPa | – | 58.14 mPa·s
293.33 K, 1080 kPa | – | 57.78 mPa·s and 57.85 mPa·s and 57.8 mPa·s
293.33 K, 1090 kPa | – | 57.81 mPa·s
293.33 K, 2170 kPa | – | 58.64 mPa·s and 59.37 mPa·s
293.33 K, 2180 kPa | – | 59.03 mPa·s and 59 mPa·s
293.33 K, 2190 kPa | – | 59.03 mPa·s
293.33 K, 9870 kPa | – | 63.32 mPa·s
293.33 K, 9880 kPa | – | 63.27 mPa·s and 63.47 mPa·s and 63.28 mPa·s
293.33 K, 14950 kPa | – | 67.38 mPa·s and 67.34 mPa·s and 67.39 mPa·s
293.33 K, 14960 kPa | – | 67.22 mPa·s
293.33 K, 19990 kPa | – | 70.54 mPa·s and 70.44 mPa·s
293.33 K, 20000 kPa | – | 70.49 mPa·s [middle of 4 runs]
293.33 K, 30180 kPa | – | 78.02 mPa·s
293.33 K, 30190 kPa | – | 78.07 mPa·s
293.33 K, 30210 kPa | – | 78.32 mPa·s
293.33 K, 30230 kPa | – | 77.85 mPa·s
293.33 K, 50550 kPa | – | 94.79 mPa·s and 94.66 mPa·s
293.33 K, 50560 kPa | – | 94.77 mPa·s
293.33 K, 50570 kPa | – | 94.4 mPa·s and 94.71 mPa·s
293.33 K, 70170 kPa | – | 114.1 mPa·s
293.33 K, 70200 kPa | – | 114.1 mPa·s
293.33 K, 70270 kPa | – | 114.6 mPa·s
293.33 K, 70300 kPa | – | 115.3 mPa·s
293.33 K, 70400 kPa | – | 115.1 mPa·s
303.15 K, 100 kPa | 1114 | –
303.15 K, 630 kPa | 1114.2 | –
303.15 K, 1200 kPa | 1114.5 | –
303.15 K, 1610 kPa | 1114.7 | –
303.15 K, 2120 kPa | 1114.9 | –
303.15 K, 3090 kPa | 1115.4 | –
303.15 K, 5080 kPa | 1116.3 | –
303.15 K, 7050 kPa | 1117.2 | –
303.15 K, 10000 kPa | 1118.5 | –
303.15 K, 14920 kPa | 1120.8 | –
303.15 K, 19740 kPa | 1122.9 | –
303.15 K, 24580 kPa | 1125 | –
303.15 K, 29520 kPa | 1127.1 | –
303.15 K, 34410 kPa | 1129.1 | –
303.15 K, 39420 kPa | 1131.2 | –
303.15 K, 44270 kPa | 1133.1 | –
303.15 K, 49210 kPa | 1135.1 | –
303.15 K, 54140 kPa | 1136.9 | –
303.15 K, 59090 kPa | 1138.8 | –
303.15 K, 63880 kPa | 1140.6 | –
303.15 K, 68800 kPa | 1142.4 | –
312.78 K, 150 kPa | – | 21.98 mPa·s and 22.09 mPa·s
312.78 K, 700 kPa | – | 22.14 mPa·s and 22.13 mPa·s
312.78 K, 1220 kPa | – | 22.49 mPa·s and 22.32 mPa·s and 22.44 mPa·s
312.78 K, 1890 kPa | – | 22.55 mPa·s and 22.58 mPa·s and 22.52 mPa·s
312.78 K, 1900 kPa | – | 22.51 mPa·s and 22.58 mPa·s
312.78 K, 1910 kPa | – | 22.46 mPa·s and 22.52 mPa·s
312.78 K, 1930 kPa | – | 22.5 mPa·s and 22.54 mPa·s
312.78 K, 1940 kPa | – | 22.5 mPa·s and 22.45 mPa·s
312.78 K, 1950 kPa | – | 22.63 mPa·s and 22.55 mPa·s
312.78 K, 1960 kPa | – | 22.58 mPa·s
312.78 K, 5280 kPa | – | 23.19 mPa·s
312.78 K, 5290 kPa | – | 23.22 mPa·s and 23.34 mPa·s and 23.31 mPa·s
312.78 K, 7880 kPa | – | 23.8 mPa·s
312.78 K, 7890 kPa | – | 23.72 mPa·s and 23.79 mPa·s
312.78 K, 7900 kPa | – | 23.76 mPa·s
312.78 K, 7910 kPa | – | 23.69 mPa·s and 23.77 mPa·s
312.78 K, 7930 kPa | – | 23.7 mPa·s and 23.66 mPa·s
312.78 K, 7940 kPa | – | 23.75 mPa·s and 23.77 mPa·s
312.78 K, 7950 kPa | – | 23.8 mPa·s and 23.81 mPa·s
312.78 K, 10530 kPa | – | 24.37 mPa·s
312.78 K, 10540 kPa | – | 24.24 mPa·s
312.78 K, 10550 kPa | – | 24.32 mPa·s and 24.16 mPa·s
312.78 K, 10570 kPa | – | 24.37 mPa·s
312.78 K, 10580 kPa | – | 24.19 mPa·s and 24.25 mPa·s
312.78 K, 10590 kPa | – | 24.17 mPa·s and 24.18 mPa·s and 24.24 mPa·s
312.78 K, 15150 kPa | – | 25.11 mPa·s
312.78 K, 15160 kPa | – | 25.22 mPa·s
312.78 K, 15200 kPa | – | 25.15 mPa·s
312.78 K, 20090 kPa | – | 26.31 mPa·s and 26.47 mPa·s
312.78 K, 20100 kPa | – | 26.49 mPa·s
312.78 K, 20110 kPa | – | 26.49 mPa·s
312.78 K, 20130 kPa | – | 26.5 mPa·s
312.78 K, 20150 kPa | – | 26.38 mPa·s
312.78 K, 20240 kPa | – | 26.45 mPa·s
312.78 K, 20260 kPa | – | 26.54 mPa·s
312.78 K, 20310 kPa | – | 26.56 mPa·s
312.78 K, 20320 kPa | – | 26.42 mPa·s
312.78 K, 29940 kPa | – | 28.24 mPa·s
312.78 K, 29960 kPa | – | 28.43 mPa·s
312.78 K, 50160 kPa | – | 33.44 mPa·s
312.78 K, 50170 kPa | – | 33.56 mPa·s and 33.32 mPa·s and 33.4 mPa·s
312.78 K, 50180 kPa | – | 33.43 mPa·s and 33.35 mPa·s
312.78 K, 50190 kPa | – | 33.62 mPa·s
312.78 K, 69710 kPa | – | 39.17 mPa·s
312.78 K, 69740 kPa | – | 38.93 mPa·s
312.78 K, 69750 kPa | – | 38.88 mPa·s
312.78 K, 69790 kPa | – | 38.97 mPa·s
312.78 K, 69810 kPa | – | 39.04 mPa·s
312.78 K, 69840 kPa | – | 39.01 mPa·s
312.78 K, 69860 kPa | – | 39.09 mPa·s
312.78 K, 69890 kPa | – | 38.83 mPa·s
312.78 K, 69910 kPa | – | 39.02 mPa·s
312.78 K, 69930 kPa | – | 38.99 mPa·s
312.78 K, 69990 kPa | – | 39 mPa·s
312.78 K, 70060 kPa | – | 38.98 mPa·s
312.78 K, 70130 kPa | – | 39.14 mPa·s
313.15 K, 100 kPa | 1106 | –
313.15 K, 570 kPa | 1106.3 | –
313.15 K, 1110 kPa | 1106.5 | –
313.15 K, 1570 kPa | 1106.7 | –
313.15 K, 2100 kPa | 1107 | –
313.15 K, 3080 kPa | 1107.5 | –
313.15 K, 5070 kPa | 1108.4 | –
313.15 K, 7000 kPa | 1109.4 | –
313.15 K, 9960 kPa | 1110.7 | –
313.15 K, 14830 kPa | 1113 | –
313.15 K, 19730 kPa | 1115.2 | –
313.15 K, 24720 kPa | 1117.5 | –
313.15 K, 29640 kPa | 1119.6 | –
313.15 K, 34400 kPa | 1121.8 | –
313.15 K, 39380 kPa | 1123.8 | –
313.15 K, 44210 kPa | 1125.9 | –
313.15 K, 49240 kPa | 1127.8 | –
313.15 K, 54040 kPa | 1129.8 | –
313.15 K, 59030 kPa | 1131.7 | –
313.15 K, 63920 kPa | 1133.6 | –
313.15 K, 68770 kPa | 1135.4 | –
323.15 K, 100 kPa | 1098 | –
323.15 K, 590 kPa | 1098.3 | –
323.15 K, 1180 kPa | 1098.5 | –
